# Results as given in ChEMBL document CHEMBL5154749 (Eur J Med Chem, 2022).
# Species: Homo sapiens
# Assay: Selectivity ratio of IC50 for human recombinant B-raf (416 to end residue) to IC50 for human recombinant full length ATR
compound,measurement,value
C[C@@H]1COCCN1c1nc(-c2cccc3[nH]ccc23)nc2ccc(-c3ccnn3C)cc12,Ratio IC50,118
